Measurements from patent US8362065B2, “Carbazole carboxamide compounds useful as kinase inhibitors” (Bristol-Myers Squibb Company, priority 2008, dated 2013).

By UniProt entry, the sequences of proteins in these tests, tags left out.
UniProt Q06187, whole entry: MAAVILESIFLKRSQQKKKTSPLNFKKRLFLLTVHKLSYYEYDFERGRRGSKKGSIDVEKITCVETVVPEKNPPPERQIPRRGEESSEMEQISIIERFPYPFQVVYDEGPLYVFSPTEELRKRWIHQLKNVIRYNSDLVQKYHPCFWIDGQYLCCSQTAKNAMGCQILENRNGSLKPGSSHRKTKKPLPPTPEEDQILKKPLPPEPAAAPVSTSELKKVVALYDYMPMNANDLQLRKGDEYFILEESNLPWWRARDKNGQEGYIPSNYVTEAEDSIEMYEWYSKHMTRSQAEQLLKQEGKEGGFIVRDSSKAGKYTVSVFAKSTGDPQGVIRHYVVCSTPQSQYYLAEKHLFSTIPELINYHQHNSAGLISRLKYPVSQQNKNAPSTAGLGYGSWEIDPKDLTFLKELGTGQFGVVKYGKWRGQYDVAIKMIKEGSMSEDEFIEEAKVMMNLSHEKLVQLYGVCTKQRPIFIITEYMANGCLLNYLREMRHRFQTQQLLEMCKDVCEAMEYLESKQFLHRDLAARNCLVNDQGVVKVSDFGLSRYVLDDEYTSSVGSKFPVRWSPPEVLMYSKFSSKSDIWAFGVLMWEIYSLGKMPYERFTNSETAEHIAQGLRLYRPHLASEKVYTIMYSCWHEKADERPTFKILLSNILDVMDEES

Target: human recombinant Btk (Homo sapiens, UniProt Q06187)
Assay: Human Recombinant Btk Enzyme Assay
Assay type: biochemical
Conditions: read-out: IC50 for Inhibition of Btk; human recombinant Btk 1 nM, ATP 20 μM, 60 min at room temperature

IC50: 1800 nM
Compound: Cc1nc(N(C(=O)OC(C)(C)C)C(=O)OC(C)(C)C)sc1-c1ccc(C(N)=O)c2[nH]c3c(c12)CCC(C(=O)NC1CCOCC1)C3 (stereo not shown)
